The numbers were not newly measured in paper PMC10452847 (Cancers, 2023), which cites them from elsewhere.

The test system of the series is FGFR2 fusion/rearrangement-positive intrahepatic cholangiocarcinoma. As to conditions: cited from earlier work.

Turning to `C=CC(=O)N1CC[C@H](n2nc(C#Cc3cc(OC)cc(OC)c3)c3c(N)ncnc32)C1` [futibatinib], the ORR is reported as 42%.
